The values that follow are results of earlier work, collected in patent US7977317B2, “Compositions and methods for modulating blood-brain barrier transport” (Raptor Pharmaceutical Inc., priority 2001, dated 2011).

The series deals with LDL-R (Homo sapiens, UniProt P01130). As to conditions: Tables 1-3; cited from earlier work.

As for ApoE: Apolipoprotein E, the “Binding to LDL-R” value is reported as “Yes”.
